Test results as given in paper PMC8667925, “New 1,2,4-oxadiazole derivatives with positive mGlu4 receptor modulation activity and antipsychotic-like properties” (Journal of Enzyme Inhibition and Medicinal Chemistry, 2021).

By UniProt entry, the sequences of proteins in these tests, tags left out. Residues count along the entry.
UniProt Q14833, 33-912 limits assumed: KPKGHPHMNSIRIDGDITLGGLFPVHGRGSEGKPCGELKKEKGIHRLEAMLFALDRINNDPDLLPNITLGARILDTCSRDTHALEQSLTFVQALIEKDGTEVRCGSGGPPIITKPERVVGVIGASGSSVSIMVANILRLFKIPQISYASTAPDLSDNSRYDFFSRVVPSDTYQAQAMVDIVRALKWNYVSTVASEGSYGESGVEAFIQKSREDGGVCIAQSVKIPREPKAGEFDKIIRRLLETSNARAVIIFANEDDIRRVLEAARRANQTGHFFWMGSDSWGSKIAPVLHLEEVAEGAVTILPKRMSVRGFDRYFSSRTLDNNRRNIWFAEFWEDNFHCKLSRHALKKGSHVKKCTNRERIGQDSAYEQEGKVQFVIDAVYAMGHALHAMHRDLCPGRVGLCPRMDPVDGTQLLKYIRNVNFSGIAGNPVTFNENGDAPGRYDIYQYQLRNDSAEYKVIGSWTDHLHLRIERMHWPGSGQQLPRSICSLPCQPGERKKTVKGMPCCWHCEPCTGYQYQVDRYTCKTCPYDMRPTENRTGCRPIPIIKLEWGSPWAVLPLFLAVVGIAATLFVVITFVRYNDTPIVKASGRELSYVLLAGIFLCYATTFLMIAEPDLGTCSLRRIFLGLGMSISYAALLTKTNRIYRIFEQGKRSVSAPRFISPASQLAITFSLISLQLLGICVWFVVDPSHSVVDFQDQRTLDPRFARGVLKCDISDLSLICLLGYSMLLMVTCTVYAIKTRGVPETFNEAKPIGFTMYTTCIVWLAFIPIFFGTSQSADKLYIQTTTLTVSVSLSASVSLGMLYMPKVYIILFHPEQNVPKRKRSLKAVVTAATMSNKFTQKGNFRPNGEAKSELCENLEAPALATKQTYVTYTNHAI

Target: mGlu4 receptor (Homo sapiens, UniProt Q14833)
Assay: forskolin-stimulated cAMP assay, PAM mode (EC20 of L-Glu), T-REx 293 cells
Conditions: SEM where given
Protocol: The activity of the compounds was assessed in vitro in a forskolin-stimulated cAMP assay in T-REx 293 cells expressing human mGlu4 receptors in the presence of an EC20 concentration of L-Glu; a PAM was identified if it potentiated cAMP inhibition by the Gi/o-dependent pathway of mGlu4 receptor activation; i.e. if it was able to produce a leftward shift in the potency of the endogenous agonist.
Determination of the intracellular cAMP through a homogeneous time-resolved fluorescence (HTRF) cAMP dynamic 2 kit from Cisbio (Codolet, France) was described previously by Chruścicka et al.[91]. Briefly, cells were grown in DMEM supplemented with 10% foetal bovine serum (FBS) (tetracycline free). Forty-eight hours before the experiments, mGlu receptor expression was induced by the addition of 0.75 µg/mL tetracycline. Twenty hours before the experiment, FBS and L-Glu were removed from the medium. Thereafter, the cells were scraped and centrifuged. A cell pellet was suspended in Hanks-HEPES (130 mM NaCl, 5.4 mM KCl, 1.8 mM CaCl2, 0.8 mM MgSO4, 0.9 mM NaH2PO4, 20 mM HEPES, and 3.25 mM glucose; pH 7.4). Then, the cell suspension was incubated in the presence of 10 µM forskolin (or 3 µM forskolin for mGlu7 receptor), the agonist L-glutamate and a compound for 5 min. Next, 10 µl of the cell suspension was mixed with 5 µl of cAMP-d2 conjugate and 5 µL of anti-cAMP cryptate conjugate. After 1 h of incubation at rt, the fluorescence at 620 nm and 665 nm was read (Tecan Infinite M1000). The results were calculated as the 665 nm/620 nm ratio multiplied by 10^4. Each sample was prepared in triplicate.
Statistical calculations were performed using GraphPad Prism 5.04 software (GraphPad Software, La Jolla, CA, USA). The curves were fitted to a 3-parametric logistic equation, allowing for the determination of EC50 values. Each data point was analysed in triplicate.

Which EC50 (PAM mode, EC20 (3 µM) L-Glu, T-REx 293 cells expressing human mGlu4 receptor) does the source give for `COc1cc(NC(=O)c2ncccc2F)ccc1-c1noc(-c2ccccc2Cl)n1` here?
Its EC50 is 780 nM.

And the GluMax (PAM mode, human mGlu4)?
The GluMax was 135%.

What about the “Fold shift of L-Glu dose-response curve” value (in the presence of 10 µM of compound) of the same compound?
The value was 6.2.
